Laboratory results reported in paper PMC8007834, “Anti-estrogenic and anti-aromatase activities of citrus peels major compounds in breast cancer” (Scientific Reports, 2021).

Test system: Aromatase
Assay: Aromatase protein levels in EAC solid tumors (ELISA)
Settings: ELISA on tumor homogenates, day 20; quercetin 100, naringenin 50, naringin 100 mg/kg i.p.

For `O=C1CC(c2ccc(O)cc2)Oc2cc(O)cc(O)c21` (stereo not shown) [C4, 5,7,4′-trihydroxy flavanone], the “aromatase levels in tumors, lower than positive control group” value was 62.43%.
